Measured values: patent US20080050387A1, “Non-Androgen Dependent Roles for Androgen Receptor and Non-Androgen Related Inhibitors of Androgen Receptor” (priority 2003, published 2008)

Protein sequences, listed by entry. Tags and fused reporters are not part of them. Chains listed by the source or under a name are the forms on record and can include a tag or linker.
UniProt P10275, with tags, fused parts or gaps DEL79-80/DUP473-473: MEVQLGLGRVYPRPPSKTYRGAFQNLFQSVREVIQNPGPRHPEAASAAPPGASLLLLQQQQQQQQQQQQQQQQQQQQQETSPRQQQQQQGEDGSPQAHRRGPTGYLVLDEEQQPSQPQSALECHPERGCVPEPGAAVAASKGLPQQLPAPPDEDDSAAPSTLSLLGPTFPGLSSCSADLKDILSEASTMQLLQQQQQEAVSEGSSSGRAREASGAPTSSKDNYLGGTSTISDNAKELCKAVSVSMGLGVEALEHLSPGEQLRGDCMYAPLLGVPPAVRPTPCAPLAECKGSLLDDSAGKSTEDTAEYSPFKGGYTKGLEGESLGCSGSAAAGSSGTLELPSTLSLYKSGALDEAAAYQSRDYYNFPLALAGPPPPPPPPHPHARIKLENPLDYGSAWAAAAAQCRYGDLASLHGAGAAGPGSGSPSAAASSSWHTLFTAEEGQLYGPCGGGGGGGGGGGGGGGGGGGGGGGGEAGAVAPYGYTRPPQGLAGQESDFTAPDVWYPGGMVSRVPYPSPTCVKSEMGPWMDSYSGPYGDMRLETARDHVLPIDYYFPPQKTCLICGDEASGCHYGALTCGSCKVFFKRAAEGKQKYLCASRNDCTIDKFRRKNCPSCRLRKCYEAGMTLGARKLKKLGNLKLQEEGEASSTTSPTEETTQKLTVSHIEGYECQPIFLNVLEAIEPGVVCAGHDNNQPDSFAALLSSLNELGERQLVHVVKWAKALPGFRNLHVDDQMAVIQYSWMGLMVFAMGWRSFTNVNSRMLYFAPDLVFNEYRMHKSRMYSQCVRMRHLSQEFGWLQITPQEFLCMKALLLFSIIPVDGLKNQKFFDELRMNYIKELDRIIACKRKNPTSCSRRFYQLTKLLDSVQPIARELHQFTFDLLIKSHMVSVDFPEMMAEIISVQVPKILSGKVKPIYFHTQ

Biological target: T1, interaction of AR with ARA70 (Homo sapiens, UniProt P10275, DEL79-80/DUP473-473)
T1 construct: expressed in transfected cells; host or cells: COS-1
Assay: Mammalian two-hybrid assay AR / ARA70 in COS-1 cells
Type: cell-based
Details: GAL4-ARA70 and VP16-AR, pG5-Luc
Method: COS-1 and PC-3 cells were maintained in early to mid-log phase in DMEM medium, supplemented with 10% fetal bovine serum (FBS), 50 units/ml penicillin and 50 μg/ml streptormnycin in incubators with humidified air and 5% carbon dioxide at 37° C. LNCaP cells were maintained in RPMI (GIBCO/BRL) medium. Twenty-four h prior to transfection, cells washed with Hanks' buffered saline solution, trypsinized, and seeded to be a density of 40-60% confluence for transfection. Cells in 12 well plates were refed with fresh medium 2 hours before transfection and transfected according to the “SuperFect Transfection” instructions (QIAGEN). After 2-3 h incubation, cells were treated with medium supplemented with charcoal-dextran treated FBS containing either ethanol or ligands. Cells were further incubated at 37° C. for 24 h, washed with PBS, and harvested.

B1: GSK3β: glycogen synthase kinase 3β, serine/threonine protein kinase (SEQ ID NO:5), wild type (protein)
chain: MSGRPRTTSFAESCKPVQQPSAFGSMKVSRDKDGSKVTTVVATPGQGPDRPQEVSYTDTKVIGNGSFGVVYQAKLCDSGELVAIKKVLQDKRFKNRELQIMRKLDHCNIVRLRYFFYSSGEKKDEVYLNLVLDYVPETVYRVARHYSRAKQTLPVIYVKLYMYQLFRSLAYIHSFGICHRDIKPQNLLLDPDTAVLKLCDFGSAKQLVRGEPNVSYICSRYYRAPELIFGATDYTSSIDVWSAGCVLAELLLGQPIFPGDSGVDQLVEIIKVLGTPTREQIREMNPNYTEFKFPQIKAHPWTKDSSGTGHFTSGVRVFRPRTPPEAIALCSRLLEYTPTARLTPLEACAHSFFDELRDPNVKLPNGRDTPALFNFTTQELSSNPPLATILIPPHARIQAAASTPTNATAASDANTGDRGQTNNAASASASNST
interaction of AR with ARA70: inhibited
